Assay: Therapeutic Index is the […] of the IC50 to that of EC50
Assay type: cell-based
Conditions: human, H9 cells; read-out: TI

Work on `Cc1cn([C@H]2C[C@H](N=[N+]=[N-])[C@@H](CO)O2)c(=O)[nH]c1=O` [ZIDOVUDINE] yielded a selectivity ratio of 33300.
